From patent EP4813463A2, “TYK2 INHIBITORS AND COMPOSITIONS AND METHODS THEREOF” (Lynk Pharmaceuticals Co. Ltd., priority 2023, dated 2024)

Legend:
Caco-2 cell lines = assay: Caco-2 cell permeability; assay type: in vitro ADME; conditions: Caco-2, 10.0 µM, no p-gp inhibitor
Description: Compounds permeability was evaluated using Caco-2 cell lines. HBSS buffer was used as transfer buffer. Appropriate dosing and receiver solutions were applied to the donor and receiver chambers to initiate the transport assay in apical to basolateral (A to B) or basolateral to apical (B to A) directions. Compounds were tested at 10.0 µM in the absence of p-gp inhibitor bidirectionally in duplicates. After incubation at 37°C for 90 mins, donor and receiver samples were analyzed by LC-MS/MS. The intestinal absorption potential was assessed using Papp value and efflux ratio.

[1] = Brain pharmacokinetic studies in rats; assay type: in vivo, Sprague-Dawley rats; conditions: po, 5 mg/kg, solution
Description: Pharmacokinetic profiles of test articles were evaluated in fasted Sprague-Dawley rats. Different kinds of formulations were designed to ensure test articles fully dissolved and wouldn't precipitate in 1:10 SGF or FaSSIF dilution. Typically, Rats were dosed with 3 mg/kg and 5 mg/kg by intravenous injection and oral gavage, respectively. The animal was restrained manually at the designated time points, approximately 150 µL of blood sample was collected via jugular vein for serial bleeding into K2EDTA tubes. The blood samples were maintained in wet ice first and centrifuged to obtain plasma (2000g, 4°C, 5 min) within 30 minutes post sampling. Anesthetizing the rat with the Isoflurane vaporizer to 2%~3% and place its back on the operation table. Spread the animal limbs and pin the limbs on the operation table. Make a cut along the sternum about 4cm long, low enough to expose the sternum's end. Expose the heart and use a 25-gauge needle connected with a 20 mL syringe filled with 20 mL of cold saline to pierce the left ventricle. Maintain the placement of the needle, and slowly push the syringe plunger to wash the brain with saline. The perfusion will be finished within about 2 min and then take the brain out of the body carefully without damaging the tissue. Dry the tissue on filtrate paper, which should be placed on ice, and then weigh the brain tissue and store at -70 °C and analyzed by LC/MS/MS for quantification. PK parameter values, including, but not necessarily limited to, the maximum plasma concentrations (Cmax), and the area under the plasma concentration vs. time curve (AUC) from time zero to 24-hour (AUC0-24h) were determined using WinNonlin program. Table 13. Systemic Pharmacokinetic Parameters in Sprague-Dawley Rats

## BMS986165 [reference compound]
Caco-2 cell lines
  Efflux Ratio: Papp(B-A)/Papp(A-B): 56.50
Caco-2 cell lines; 90 mins, A to B
  Papp (10^-6 cm·s^-1) A-B: 0.98 10^-6 cm·s^-1
Caco-2 cell lines; 90 mins, B to A
  Papp (10^-6 cm·s^-1) B-A: 55.12 10^-6 cm·s^-1
[1]; brain
  AUC: 82.6 ng·h/g
  T1/2: 7.85 h
[1]
  Brain AUC/Systemic AUC: 0.02
[1]; systemic (plasma)
  AUC: 4088 ng·h/mL
  T1/2: 1.82 h
